System: estrogen synthesis (aromatization)
Test: Estrogen Synthesis Inhibition in Rats (uterine weight and ovarian steroid concentration)
Format: in vivo, immature female Wistar rats
Details: ovary, 7 days, testosterone-treated control 0.31, p < 0.05
Procedure: Immature female Wistar rats (45-55 grams) were divided into control and test groups of 4-8 animals each. Test compounds were administered for seven days as a component of the diet. Control animals received diet without the test compound. Beginning on the fourth day of the test, all animals treated with the test compound and one half of the control animals were given a subcutaneous injection of 1.0 mg of testosterone propionate in corn oil. The remaining control animals received only an equivalent volume of corn oil. On the seventh day of the test, rats treated with testosterone propionate were injected subcutaneously with 100 μCi of [^3 H]-testosterone in 50 μl of 3:1 (v/v) saline-ethanol.
After two hours, the animals were killed by decapitation. […]
Ovarian proteins were precipitated by the addition of 5.0 ml of ethanol to the remaining aqueous phase. […] Protein was determined according to the method of Bradford, Analytical Biochemistrv, 72, 248 (1976). […]
The visible spots were marked, and the plates were sprayed with primulin (0.001% in 4:1 v/v acetone/water) according to the method of Wright, J. Chromatography, 59, 220 (1971) which allowed for the identification of additional steroids under 365 nm UV light. […] The organic solvent was evaporated and 10.0 ml of scintillation fluid (Beckman Ready Solv-NA) was added to the vials. Samples were analyzed by liquid scintillation spectrometry. […]

## OC(c1ccc(Cl)cc1)(c1ccc(Cl)cc1)c1cccnc1 [α,α-bis(4-chlorophenyl)-3-pyridinemethanol]
30 ppm in feed (approx. 3 mg/kg/day)
  Mean Steroid Concentration, estrone: 0.19 femtomoles per milligram of protein
300 ppm in feed (approx. 30 mg/kg/day)
  Mean Steroid Concentration, estrone: 0.10 femtomoles per milligram of protein
